Several values for one entry are separate records, joined by “and”; a condition that tells them apart may be missing. Equal entries are not always repeated.
Experiments:
T3M4 = assay: Cell death, PI staining and FACS; format: cell-based, human; settings: 6 h, serum‐free medium, PI staining, FACS, from maximal extent of cell death, mean ± SE (n = 3), read-out: Peptide EC50, μM (half‐maximal cell death activity)
Protocol: (§1) Leukemia cells, U‐937, MEC‐1 cells (4 × 10^5 or 8 × 10^5 cells/sample, respectively), as well as other leukemia or suspension cell lines, were incubated in 200 μL serum‐free medium with various concentrations of the peptide for 90 min at 23–25 °C, collected by centrifugation (500 g, 5 min), washed with PBS, and analyzed for cell death. Adherent cells (6 × 10^5 mL^−1 at 70–80% confluence) were incubated with the peptide of interest in 500 μL serum‐free recommended culture medium for 3–6 h at 37 °C and 5% CO2. The cells were then trypsinized, centrifuged (1500 g, 5 min), washed with PBS, and analyzed for the desired activity. Following peptide treatment, cells were subjected to cell death analysis. Propidium iodide (PI) staining was performed by addition of PI (6.25 μg·mL^−1) to the cells and immediate analysis by the EC800 Flow cytometer Analyzer–Eclipse or the FACS caliber (Becton‐Dickinson, San Jose, CA, USA) and BD […] PRO software (BD Biosciences, San Jose, CA, USA).
(§2) Forty‐one cancerous and five noncancerous cell lines were used in this study to examine the cell‐killing activity of the VDAC1‐based peptides Antp‐LP4, Tf‐LP4, Tf‐D‐LP4, R‐Tf‐D‐LP4, N‐Ter‐Antp, and others (Figs 1, 2, 3 and Tables 1, 2, 3). For each line, cells were incubated with different peptide concentrations, and cell death was determined by PI staining and FACS analysis (Figs 1, 2, 3). In addition, for each cell line, the concentration of the peptide inducing 50% cell death (EC50) was determined (Tables 1, 2, 3).

HepG2 = assay: Cell death, PI staining and FACS; format: cell-based, human; settings: 6 h, serum‐free medium, PI staining, FACS, from maximal extent of cell death, mean ± SE (n = 3), read-out: Peptide EC50, μM (half‐maximal cell death activity)
Protocol: as §1, §2

Jurkat = assay: Cell death, PI staining and FACS; format: cell-based, human; settings: 90 min, serum‐free medium, PI staining, FACS, from maximal extent of cell death, mean ± SE (n = 3), read-out: Peptide EC50, μM (half‐maximal cell death activity)
Protocol: as §1, §2

A‐375 = assay: Cell death, PI staining and FACS; format: cell-based, human; settings: 6 h, serum‐free medium, PI staining, FACS, from maximal extent of cell death, mean ± SE (n = 3), read-out: Peptide EC50, μM (half‐maximal cell death activity)
Protocol: as §1, §2

T‐Rex‐293 = assay: Cell death, PI staining and FACS; format: cell-based, human; settings: T‐Rex‐293 nonmalignant; 6 h, serum‐free medium; PI staining, FACS; from maximal extent of cell death; mean ± SE (n = 3); read-out: Peptide EC50, μM (half‐maximal cell death activity)
Protocol: as §1, §2

SKOV‐3 = assay: Cell death, PI staining and FACS; format: cell-based, human; settings: 6 h, serum‐free medium, PI staining, FACS, from maximal extent of cell death, mean ± SE (n = 3), read-out: Peptide EC50, μM (half‐maximal cell death activity)
Protocol: as §1, §2

U‐937 = assay: Cell death, PI staining and FACS; format: cell-based, human; settings: 90 min, serum‐free medium, PI staining, FACS, from maximal extent of cell death, mean ± SE (n = 3), read-out: Peptide EC50, μM (half‐maximal cell death activity)
Protocol: as §1, §2

HuH‐7 = assay: Cell death, PI staining and FACS; format: cell-based, human; settings: 6 h, serum‐free medium, PI staining, FACS, from maximal extent of cell death, mean ± SE (n = 3), read-out: Peptide EC50, μM (half‐maximal cell death activity)
Protocol: as §1, §2

MEC‐1 = assay: Cell death, PI staining and FACS; format: cell-based, human; settings: 90 min, serum‐free medium, PI staining, FACS, from maximal extent of cell death, mean ± SE (n = 3), read-out: Peptide EC50, μM (half‐maximal cell death activity)
Protocol: as §1, §2

AsPC1 = assay: Cell death, PI staining and FACS; format: cell-based, human; settings: 6 h, serum‐free medium, PI staining, FACS, from maximal extent of cell death, mean ± SE (n = 3), read-out: Peptide EC50, μM (half‐maximal cell death activity)
Protocol: as §1, §2

HeLa = assay: Cell death, PI staining and FACS; format: cell-based, human; settings: 6 h, serum‐free medium, PI staining, FACS, from maximal extent of cell death, mean ± SE (n = 3), read-out: Peptide EC50, μM (half‐maximal cell death activity)
Protocol: as §1, §2

MCF‐7 = assay: Cell death, PI staining and FACS; format: cell-based, human; settings: 6 h, serum‐free medium, PI staining, FACS, from maximal extent of cell death, mean ± SE (n = 3), read-out: Peptide EC50, μM (half‐maximal cell death activity)
Protocol: as §1, §2

THP‐1 = assay: Cell death, PI staining and FACS; format: cell-based, human; settings: 90 min, serum‐free medium, PI staining, FACS, from maximal extent of cell death, mean ± SE (n = 3), read-out: Peptide EC50, μM (half‐maximal cell death activity)
Protocol: as §1, §2

Molt‐4 = assay: Cell death, PI staining and FACS; format: cell-based, human; settings: 90 min, serum‐free medium, PI staining, FACS, from maximal extent of cell death, mean ± SE (n = 3), read-out: Peptide EC50, μM (half‐maximal cell death activity)
Protocol: as §1, §2

H358 = assay: Cell death, PI staining and FACS; format: cell-based, human; settings: 6 h, serum‐free medium, PI staining, FACS, from maximal extent of cell death, mean ± SE (n = 3), read-out: Peptide EC50, μM (half‐maximal cell death activity)
Protocol: as §1, §2

K‐562 = assay: Cell death, PI staining and FACS; format: cell-based, human; settings: 90 min, serum‐free medium, PI staining, FACS, from maximal extent of cell death, mean ± SE (n = 3), read-out: Peptide EC50, μM (half‐maximal cell death activity)
Protocol: as §1, §2

CNS‐1 = assay: Cell death, PI staining and FACS; format: cell-based, rat; settings: 6 h, serum‐free medium, PI staining, FACS, from maximal extent of cell death, mean ± SE (n = 3), read-out: Peptide EC50, μM (half‐maximal cell death activity)
Protocol: as §1
as §2, with “In addition, for each cell line, the concentration of the peptide inducing 50% cell death (EC50) was determined (Tables 1, 2, 3).” left out

PANC1 = format: cell-based; settings: PANC1; 6 h, serum‐free medium; PI staining, FACS; from maximal extent of cell death; mean ± SE (n = 3); read-out: Peptide EC50, μM (half‐maximal cell death activity)
Protocol: as §1, §2

DU‐145 = format: cell-based; settings: DU‐145; 6 h, serum‐free medium; PI staining, FACS; from maximal extent of cell death; mean ± SE (n = 3); read-out: Peptide EC50, μM (half‐maximal cell death activity)
Protocol: as §1, §2

PWR‐1E = format: cell-based; settings: PWR‐1E noncancer cells; 6 h, serum‐free medium; PI staining, FACS; from maximal extent of cell death; mean ± SE (n = 3); read-out: Peptide EC50, μM (half‐maximal cell death activity)
Protocol: as §1, §2

U‐87MG = format: cell-based; settings: U‐87MG; 6 h, serum‐free medium; PI staining, FACS; from maximal extent of cell death; mean ± SE (n = 3); read-out: Peptide EC50, μM (half‐maximal cell death activity)
Protocol: as §1, §2

MDA‐MB‐231 = format: cell-based; settings: 6 h, serum‐free medium, PI staining, FACS, from maximal extent of cell death, mean ± SE (n = 3), read-out: Peptide EC50, μM (half‐maximal cell death activity)
Protocol: as §1, §2

A549 = format: cell-based; settings: A‐549; 6 h, serum‐free medium; PI staining, FACS; from maximal extent of cell death; mean ± SE (n = 3); read-out: Peptide EC50, μM (half‐maximal cell death activity)
Protocol: as §1, §2

PC‐3 = format: cell-based; settings: PC‐3; 6 h, serum‐free medium; PI staining, FACS; from maximal extent of cell death; mean ± SE (n = 3); read-out: Peptide EC50, μM (half‐maximal cell death activity)
Protocol: as §1, §2

CC[C@H](C)[C@H](NC(=O)[C@H](CCCCN)NC(=O)[C@@H](NC(=O)[C@H](CCC(N)=O)NC(=O)[C@@H](N)CCCNC(=N)N)[C@@H](C)CC)C(=O)N[C@@H](Cc1c[nH]c2ccccc12)C(=O)N[C@@H](Cc1ccccc1)C(=O)N[C@@H](CCC(N)=O)C(=O)N[C@@H](CC(N)=O)C(=O)N[C@@H](CCCNC(=N)N)C(=O)N[C@@H](CCCNC(=N)N)C(=O)N[C@@H](CCSC)C(=O)N[C@@H](CCCCN)C(=O)N[C@@H](Cc1c[nH]c2ccccc12)C(=O)N[C@@H](CCCCN)C(=O)N[C@@H](CCCCN)C(=O)N[C@@H](CO)C(=O)N[C@@H](Cc1c[nH]c2ccccc12)C(=O)N[C@H](C(=O)N[C@@H](Cc1c[nH]c2ccccc12)C(=O)N[C@@H](CCC(=O)O)C(=O)N[C@@H](CCCCN)C(=O)N[C@@H](CCCCN)C(=O)N[C@@H](CC(C)C)C(=O)N[C@@H](CCC(=O)O)C(=O)N[C@H](C(=O)N[C@@H](C)C(=O)N[C@H](C(=O)N[C@@H](CC(N)=O)C(=O)N[C@@H](CC(C)C)C(=O)N[C@@H](C)C(=O)N[C@@H](Cc1c[nH]c2ccccc12)C(=O)N[C@H](C(=O)N[C@@H](C)C(=O)NCC(=O)N[C@@H](CC(N)=O)C(=O)N[C@@H](CO)C(=O)N[C@@H](CC(N)=O)C(=O)N[C@@H](CCCCN)C(=O)N[C@@H](Cc1c[nH]c2ccccc12)C(=O)N[C@H](C(=O)N[C@@H](Cc1c[nH]c2ccccc12)C(=O)N[C@@H](CCCCN)C(=O)O)[C@@H](C)O)[C@@H](C)O)C(C)C)[C@@H](C)O)[C@@H](C)O [Antp‐LP4]
EC50 (T3M4): 2 ± 0.7 µM
EC50 (HepG2): 8.6 ± 3 µM
EC50 (Jurkat): 1.3 ± 0.5 µM
EC50 (A‐375): 33.8 ± 3.2 µM
EC50 (T‐Rex‐293): 29.3 ± 4 µM
EC50 (SKOV‐3): 6.9 ± 0.7 µM
EC50 (U‐937): ≤ 3 µM and 1.9 µM
EC50 (HuH‐7): 2.3 ± 1.5 µM
EC50 (MEC‐1): ≤ 3 µM and 2.4 µM
EC50 (AsPC1): 12 ± 7.3 µM
EC50 (HeLa): 3.9 ± 1.1 µM
EC50 (MCF‐7): 10.1 ± 0.2 µM
EC50 (THP‐1): 1.3 ± 0.5 µM
EC50 (Molt‐4): 3.4 ± 2 µM
EC50 (H358): ≤ 6 µM and 7.6 µM
EC50 (K‐562): 1.2 ± 0.1 µM
EC50 (CNS‐1): 1.3 ± 0.8 µM
EC50 (PANC1): ≥ 18 µM and 28.7 µM
EC50 (DU‐145): 4 ± 0.5 µM
EC50 (PWR‐1E): 15.5 ± 2 µM
EC50 (U‐87MG): 6.2 ± 1.3 µM
EC50 (MDA‐MB‐231): 8.1 ± 2.4 µM
EC50 (A549): ≤ 6 µM and 6.4 µM
EC50 (PC‐3): 5.9 ± 1.5 µM

Source: article PMC6026870, “Selective induction of cancer cell death by VDAC1‐based peptides and their potential use in cancer therapy” (Molecular Oncology, 2018)
